Legend:
[1] = target: norepinephrine transporter (Rattus norvegicus, UniProt Q9WTR4); test: Binding at native NE transporter; conditions: read-out: rNE Uptk Ki; native transporter, rNE Uptk
Experimental: (§1) The binding properties of the compounds of the present invention were evaluated at one or more cloned receptors or native, tissue-derived transporters, using protocols described below.
(§2) The methods to determine binding affinity at native transporters are described in the following publications: 5HT transporter and NE transporter (Owens et al., 1997), and DA transporter (Javitch et al, 1984).

Protein sequences, listed by entry. Tags and fused reporters are not part of them. Residues count along the entry.
UniProt Q9WTR4, 1-597: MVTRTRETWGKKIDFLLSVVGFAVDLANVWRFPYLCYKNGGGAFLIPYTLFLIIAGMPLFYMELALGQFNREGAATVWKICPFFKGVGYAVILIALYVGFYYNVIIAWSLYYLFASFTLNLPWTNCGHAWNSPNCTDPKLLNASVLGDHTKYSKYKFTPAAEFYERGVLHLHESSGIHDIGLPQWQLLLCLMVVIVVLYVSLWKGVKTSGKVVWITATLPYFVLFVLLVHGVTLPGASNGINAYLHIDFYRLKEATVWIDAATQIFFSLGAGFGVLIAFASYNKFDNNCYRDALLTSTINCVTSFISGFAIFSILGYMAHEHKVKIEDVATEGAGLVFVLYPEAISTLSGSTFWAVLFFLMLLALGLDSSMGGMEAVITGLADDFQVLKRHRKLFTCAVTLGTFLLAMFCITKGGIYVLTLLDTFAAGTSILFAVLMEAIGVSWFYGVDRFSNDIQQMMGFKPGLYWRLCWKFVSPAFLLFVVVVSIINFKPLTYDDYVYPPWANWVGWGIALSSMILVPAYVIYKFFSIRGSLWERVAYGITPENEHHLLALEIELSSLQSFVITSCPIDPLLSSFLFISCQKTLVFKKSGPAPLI

[2] = system: norepinephrine transporter; test: Binding at native NE transporter; conditions: Ki at rNE Uptk divided by Ki at hGAL3
Experimental: as §1, §2

male Sprague-Dawley rats = test: Rat Forced Swim Test (FST); conditions: conclusion of the study
Experimental: The procedure used in this study was similar to that previously described (Porsolt, et al., 1978), except the water depth (30 cm in this procedure). The greater depth in this test prevented the rats from supporting themselves by touching the bottom of the cylinder with their feet. Swim sessions were conducted by placing rats in individual plexiglass cylinders (46 cm tall×20 cm in diameter) containing 23-25° C. water 30 cm deep (Porsolt, et al. used a depth of only 15 cm; also, see Detke, et al., 1995). Two swim tests were conducted always between 1200 and 1800 hours: an initial 15-min pretest followed 24 h later by a 5-minute test. Drug treatments were administered 60 minutes before the 5-minute test period. All other test sessions were conducted between 1300 to 1700 hours. Following all swim sessions, rats were removed from the cylinders, dried with paper towels and placed in a heated cage for 15 minutes and returned to their home cages. All test sessions were videotaped using a Panasonic color video camera and recorder for scoring later.
Male Sprague-Dawley rats (Taconic Farms, N.Y.) were used in all experiments. Rats were housed in pairs and maintained on a 12:12 h light-dark cycle. Rats were handled for 5 minutes each day for 5 days prior to behavioral testing.
The rat's behavior was rated at 5 second intervals during the 5 minute test as one of the following:
1. […]

Question: For COC[C@@H]1[C@@H](c2ccccc2)OCCN1c1nc(Nc2ccc(C)cc2)cc(N2CCCCC2)n1, which Ki [1] is on record?
Answer: 37.6 µM

Question: What about the selectivity ratio rNE Uptk [2] of the same compound?
Answer: > 100

Question: And the “Overall profile in the Forced Swim Test” value (male Sprague-Dawley rats)?
Answer: may have antidepressant properties in this model

— patent US20090318504A1, “Use of GAL3 receptor antagonists for the treatment of depression and/or anxiety and compounds useful in such methods” (priority 2001, published 2009)
